Drawing on ChEMBL document CHEMBL5053557, “Discovery of Novel Dual-Target Inhibitor of Bromodomain-Containing Protein 4/Casein Kinase 2 Inducing Apoptosis and Autophagy-Associated Cell Death for Triple-Negative Breast Cancer Therapy” (J Med Chem, 2021), this text covers IC50 for 1 molecule.

The subject of assay [1] is MDA-MB-231. Put plainly: cells. The conditions noted are these: Homo sapiens, MDA-MB-231, 24 h.
Assay [2] deals with MDA-MB-468. The experiment in a line: Antiproliferative activity against human MDA-MB-468 cells incubated for 24 hrs by MTT assay. In kind it is functional, cell-based. The following applies: MDA-MB-468, 24 h. On the technique in general: Tetrazolium assays rely on reduction of a dye to a coloured formazan, in cell work by metabolically active cells.

The IC50 is the concentration at which inhibition is half-maximal. Lower therefore signals greater potency in that assay. On to `Cc1sc2c(c1C)C(c1ccc(Cl)cc1)=N[C@@H](CC(=O)OC(C)(C)C)c1nnc(C)n1-2`, for which the IC50 in assay [1] came out at 29.5 µM; in assay [2], 30.2 µM.
